## Measured affinities in a library of Ab-14 light chain variants

Reference: Li et al. 2023, doi:10.1038/s41467-023-39022-2. File: FLAb, binding data.

All variants were tested on one target, the spike HR2 peptide PDVDLGDISGINAS (SARS-CoV-2).

Parent scFv Ab-14: VH joined to VL by a (GGGGS)3 linker. Changes lie in the light chain CDRs alone.
VH: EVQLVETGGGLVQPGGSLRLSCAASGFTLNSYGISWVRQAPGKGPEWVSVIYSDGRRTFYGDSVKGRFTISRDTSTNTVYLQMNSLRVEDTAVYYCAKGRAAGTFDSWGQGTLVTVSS
VL: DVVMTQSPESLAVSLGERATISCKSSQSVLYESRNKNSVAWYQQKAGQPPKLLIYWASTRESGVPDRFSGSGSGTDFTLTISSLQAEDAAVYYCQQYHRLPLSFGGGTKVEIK

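The parent was found by panning a naive human phage display library on the peptide. These sequences belong to a second round, designed from the earlier measurements on random variants of the parent. Their group label is 14L_En_HC (En: ensemble of fine-tuned language models; HC: hill climbing; a sequence that several methods proposed may carry one label only). AlphaSeq pools MATa yeast showing the antibodies with MATalpha yeast showing the peptide. Mating (16 h, 30 °C) was followed by selection of diploids and sequencing of their barcodes. A regression on co-assayed BCL2-family reference pairs converts the normalised counts of each replicate to an apparent Kd. Mating was done six times.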

Variants are written as CDR1, CDR2 and CDR3 of the light chain (limits as in the source). Parent: KSSQSVLYESRNKNSVA, WASTRES, QQYHRLPLS. Values are log10 of the apparent Kd in nM; lower means stronger binding. Replicates are averaged; those with no signal do not enter the mean. An entry "ND" has no value in the source: the pair was not observed among the diploids in that replicate. This suggests poor binding but is not conclusive.

CDR-L1 | CDR-L2 | CDR-L3 | log10 Kd, replicates | mean, log10 nM | empty controls
SLMQVGGYESNNHNSIA | DLRTREN | QQYHRLPLS | 1.00 / 0.94 / 0.74 / 0.49 / 1.12 / 0.71 | 0.83 | 1 of 18 (2.27)
MLSDLNKMGVRNTQSVA | DNSTRGS | QQYDRLPLS | 1.91 / 1.98 / 3.14 / 2.08 / 2.89 / 2.85 | 2.47 | 5 of 18 (2.89)
KLSSYVGGESRNKSSLA | DNSTRES | QQYHRLPLS | 0.94 / 1.56 / 2.01 / 2.29 / 1.81 / 2.06 | 1.78 | 3 of 18 (2.56)
ILYDSVGTLARNKNSVA | DNSTRES | QQYDRLPLS | ND / 1.66 / 1.36 / 1.33 / ND / 1.52 | 1.47 | 3 of 18 (2.47)
KLGQSVAMTSRMTNNVA | DLNERER | QQYHRLPLS | 0.23 / 0.01 / 0.06 / -0.22 / -0.02 / 0.03 | 0.01 | 0 of 18
KLSQVTHSESRNKNSIA | EMVCREV | QQYDRLPLS | ND / ND / ND / 2.48 / ND / 1.81 | 2.14 | 0 of 18
NFSQMVLSGSTLRNSVA | HASTRFD | QQYHRLPLI | 1.07 / 1.32 / 1.53 / 0.78 / 1.26 / 1.11 | 1.18 | 0 of 18
KLSISYLFESQQKNSIA | ENSTRES | QHYHRLPLS | ND / ND / ND / 3.14 / ND / 2.19 | 2.67 | 1 of 18 (3.38)
MITAMLRGVGKDKNSVA | NAQTRES | QHYNRLPLS | 1.84 / 1.64 / 1.41 / 1.26 / 2.19 / 1.96 | 1.71 | 1 of 18 (2.86)
KLSQSVLFWGHAINSVA | EMETRES | QQYDRLPLS | 1.09 / 1.50 / 1.24 / 1.43 / 0.93 / 1.03 | 1.20 | 1 of 18 (3.24)
KLSQSVNYLTRVMNSVA | DNSTRES | QQYFRLPLS | -0.08 / -0.47 / -0.09 / -0.60 / -1.07 / -0.01 | -0.39 | 0 of 18
TIGQSVHETSRIKNSVA | HATMRED | QQYDRLPLS | 0.48 / 0.36 / 0.34 / 0.17 / 0.48 / 0.41 | 0.37 | 1 of 18 (3.87)
MISDLMMYGSRNKNSVA | DLSTRGS | QQYHRLPLS | 0.16 / -0.04 / 0.22 / 0.40 / 0.32 / 0.22 | 0.21 | 0 of 18
MMSMGSLGGMRAKNNVA | QESTRES | QQYHRLPLI | 0.87 / 1.01 / 1.71 / 0.92 / 1.52 / 1.66 | 1.28 | 2 of 18 (2.98)
KLRQSTAYLMENKNSVA | ELTTRGN | QQYFRLPLS | 0.88 / 0.22 / 1.44 / 0.95 / 0.56 / 0.31 | 0.73 | 0 of 18
IISQSMMIESATHNSIA | QTETREE | QQYHHLPLI | 2.17 / 1.47 / 1.10 / 1.17 / 1.22 / 0.69 | 1.30 | 0 of 18
HISYSMAHLSKNKNSVA | NQQTREQ | QQYHRLPLS | ND / ND / ND / ND / ND / ND | ND | 0 of 18
MISGSVMSENRLKNSVA | QTTTRES | QQYDRLPLS | 1.05 / 0.80 / 0.80 / 0.80 / 0.78 / 0.61 | 0.80 | 1 of 18 (1.73)
KISQMSTIESITHNSVA | QVSTRES | QQYDRLPLS | 0.84 / 0.55 / 2.32 / 0.67 / 1.29 / 1.26 | 1.15 | 0 of 18
MFSQLFMYGSRNYNSIA | QASTRES | QQYHRLPLI | 0.86 / 0.64 / 0.88 / 1.23 / 1.25 / 0.85 | 0.95 | 0 of 18
MMSQMFEGLSTQKNPVA | QVSTREE | QQYHRLPLS | 0.92 / 1.38 / 0.77 / 0.29 / 0.81 / 0.93 | 0.85 | 0 of 18
KIGHGVTGTSRKGNSVA | QAETRLD | QQYHRLPLM | 0.55 / 0.70 / 1.01 / 0.97 / 1.19 / 0.76 | 0.86 | 2 of 18 (3.46)
KLSSFHNVEQINKSNVA | EMVTRES | QQYDRLPLS | 1.34 / 1.20 / 1.53 / 2.50 / 1.98 / 2.31 | 1.81 | 0 of 18
MISDLTYYGLRNVNSVA | DLSTRGN | QQYDRLPLS | 0.63 / 0.45 / 0.19 / 0.56 / 0.87 / 0.57 | 0.54 | 1 of 18 (2.33)
IFSQSVLMGNLTKNSVA | QASTRFQ | QQYHRLPLI | 1.96 / 1.52 / 1.44 / 1.67 / 1.59 / 1.81 | 1.67 | 2 of 18 (2.76)
MISDLTSYGLRNVNSVA | DLSTRGS | QQYDRLPLS | 0.49 / 0.55 / 0.49 / 0.38 / 0.34 / 0.60 | 0.48 | 0 of 18
TISDLMHMESRNVNSVA | DLVKRES | QQYHRLPLS | 0.06 / -0.02 / -0.15 / -0.17 / -0.17 / 0.05 | -0.07 | 3 of 18 (3.78)
MISDLTYYGLRNVNSVA | DLSTRGS | QQYDRLPLS | ND / ND / ND / ND / ND / ND | ND | 0 of 18
KISGMMQKESKNKNSVA | EMVNRES | QQYDRLPLS | 1.69 / 2.37 / 0.69 / 1.43 / 1.06 / 1.99 | 1.54 | 2 of 18 (2.02)
KLYQSVGTMMHNKQSIA | DMERRED | QQYHRLPLS | 0.50 / 0.91 / 0.82 / 2.57 / 2.50 / 1.35 | 1.44 | 0 of 18
KLSQVTEYEMHQKNNVA | DLTTRGS | QDYHRLPLS | 0.67 / 0.45 / 0.78 / 0.59 / 0.23 / 0.65 | 0.56 | 0 of 18
TLTQSVEMESHNKNSVA | DLSTRGS | QQYHRLPLS | 0.51 / 0.40 / -0.10 / 0.13 / -0.17 / 0.06 | 0.14 | 0 of 18

The first 2 variants above that were never detected:

CDR-L1 | CDR-L2 | CDR-L3 | log10 Kd, replicates | mean, log10 nM | empty controls
HISYSMAHLSKNKNSVA | NQQTREQ | QQYHRLPLS | ND / ND / ND / ND / ND / ND | ND | 0 of 18
MISDLTYYGLRNVNSVA | DLSTRGS | QQYDRLPLS | ND / ND / ND / ND / ND / ND | ND | 0 of 18

The authors' rule: three or more of the six replicates give a measured affinity, fewer mean a poor binder. Nonspecific signal, from three strains lacking the peptide, appeared in 4% of pairings of all light chain designs, centred on 2.64 (5% of these signals below 1.59); values are not corrected for it. For each scFv, signals with the empty controls are counted beside the result, with their mean in brackets. Values of this round are not directly comparable with the first-round values of the same sequences. The parent sequence was in this pool as ten entries: three were never detected, three once, and four in most replicates, with averages from 0.34 to 2.37.